Assay results taken from ChEMBL document CHEMBL1121977, “alpha 2 adrenoceptors: classification, localization, mechanisms, and targets for drugs” (J Med Chem, 1982).

By UniProt entry, the sequences of proteins in these tests, tags left out. Where a name states a change or a piece, a line headed by the entry shows the natural chain unless it says otherwise.
UniProt P22086: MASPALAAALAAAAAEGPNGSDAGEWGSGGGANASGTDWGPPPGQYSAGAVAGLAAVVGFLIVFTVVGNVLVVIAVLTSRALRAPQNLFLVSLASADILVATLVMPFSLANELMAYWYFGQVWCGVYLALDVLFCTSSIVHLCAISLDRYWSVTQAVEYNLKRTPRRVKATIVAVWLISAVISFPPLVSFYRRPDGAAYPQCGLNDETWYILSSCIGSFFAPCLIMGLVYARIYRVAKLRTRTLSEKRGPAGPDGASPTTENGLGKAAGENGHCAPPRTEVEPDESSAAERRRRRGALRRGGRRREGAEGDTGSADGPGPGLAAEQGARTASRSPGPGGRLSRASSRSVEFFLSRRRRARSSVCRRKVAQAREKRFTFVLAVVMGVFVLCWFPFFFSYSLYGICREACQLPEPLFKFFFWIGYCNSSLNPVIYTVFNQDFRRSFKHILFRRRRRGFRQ
UniProt P19328: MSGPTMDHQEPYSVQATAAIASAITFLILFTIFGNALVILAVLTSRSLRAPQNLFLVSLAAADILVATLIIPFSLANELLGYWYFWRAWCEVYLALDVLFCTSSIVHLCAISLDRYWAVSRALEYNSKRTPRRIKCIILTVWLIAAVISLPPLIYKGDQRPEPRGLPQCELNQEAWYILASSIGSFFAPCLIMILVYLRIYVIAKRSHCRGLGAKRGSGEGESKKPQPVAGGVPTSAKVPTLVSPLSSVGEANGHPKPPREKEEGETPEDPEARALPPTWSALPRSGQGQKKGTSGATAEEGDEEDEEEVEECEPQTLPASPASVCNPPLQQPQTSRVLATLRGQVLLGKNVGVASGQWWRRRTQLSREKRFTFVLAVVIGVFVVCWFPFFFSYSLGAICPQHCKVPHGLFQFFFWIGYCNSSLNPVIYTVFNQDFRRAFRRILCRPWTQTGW
UniProt P22909: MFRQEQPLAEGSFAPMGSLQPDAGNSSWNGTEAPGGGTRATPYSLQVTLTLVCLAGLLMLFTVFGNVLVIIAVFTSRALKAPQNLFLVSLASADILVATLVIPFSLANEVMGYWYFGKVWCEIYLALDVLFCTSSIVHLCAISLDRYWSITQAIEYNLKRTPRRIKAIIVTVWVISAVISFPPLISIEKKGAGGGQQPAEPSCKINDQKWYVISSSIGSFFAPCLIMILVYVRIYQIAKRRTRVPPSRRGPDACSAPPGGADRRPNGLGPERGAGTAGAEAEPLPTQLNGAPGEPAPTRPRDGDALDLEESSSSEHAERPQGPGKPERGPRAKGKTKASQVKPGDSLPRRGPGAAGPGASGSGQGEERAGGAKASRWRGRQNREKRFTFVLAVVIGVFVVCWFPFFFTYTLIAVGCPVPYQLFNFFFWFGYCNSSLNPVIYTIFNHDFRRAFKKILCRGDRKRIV

Target: Adrenergic receptor alpha-2 (Rattus norvegicus, UniProt P22086+P19328+P22909)
Experiment: Displacement of [3H]clonidine from Alpha-2 adrenergic receptor of rat brain membranes
Assay type: cell membranes, Membrane

Ki: 5.7 nM
SMILES: c1ccc2c(CC3=NCCN3)cccc2c1 [NAPHAZOLINE]
